This note sets out measurements from BindingDB's records for patent US10231967 (AstraZeneca, 2019).

The chains behind the UniProt entries cited, without tags or fusion partners.
UniProt P05067, whole entry: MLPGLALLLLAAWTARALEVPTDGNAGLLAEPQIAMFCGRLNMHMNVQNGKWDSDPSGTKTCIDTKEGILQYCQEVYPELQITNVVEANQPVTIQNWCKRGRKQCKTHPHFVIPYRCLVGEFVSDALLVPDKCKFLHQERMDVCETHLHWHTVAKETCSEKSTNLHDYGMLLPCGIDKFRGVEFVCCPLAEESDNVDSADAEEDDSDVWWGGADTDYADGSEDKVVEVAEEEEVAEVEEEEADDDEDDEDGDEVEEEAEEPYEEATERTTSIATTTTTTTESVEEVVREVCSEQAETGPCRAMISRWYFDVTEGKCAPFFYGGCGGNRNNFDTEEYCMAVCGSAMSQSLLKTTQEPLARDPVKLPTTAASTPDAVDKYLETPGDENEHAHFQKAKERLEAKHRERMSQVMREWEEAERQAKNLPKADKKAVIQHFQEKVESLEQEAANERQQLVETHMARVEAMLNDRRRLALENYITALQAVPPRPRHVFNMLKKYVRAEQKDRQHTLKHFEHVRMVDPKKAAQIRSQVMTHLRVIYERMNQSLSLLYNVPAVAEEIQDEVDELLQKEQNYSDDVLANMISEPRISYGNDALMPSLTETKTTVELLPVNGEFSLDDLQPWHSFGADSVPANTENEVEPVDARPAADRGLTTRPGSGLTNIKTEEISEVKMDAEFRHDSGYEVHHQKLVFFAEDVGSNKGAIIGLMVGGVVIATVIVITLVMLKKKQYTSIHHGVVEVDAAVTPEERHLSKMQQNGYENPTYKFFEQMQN

As a reminder, the IC50 is the concentration that inhibits the measured activity by half. Lower therefore signals greater potency.

Structures are written as SMILES.

For this assay, the target named is Amyloid-beta precursor protein (Homo sapiens, UniProt P05067). Kind of assay: sAPPbeta Release Assay. The procedure:
Thaw cells and seed at a conc. of around 10000 cells/well in DMEM/F-12 with Glutamax, 10% FCS and 1% non-essential amino acids to a 384-well tissue culture treated plate, 100 μL cell susp/well. […] The cell medium was removed, followed by addition of 30 μL compound diluted in DMEM/F-12 with Glutamax, 10% FCS, 1% non-essential amino acids and 1% PeSt to a final conc. of 1% DMSO. The compounds were incubated with the cells for 17 h (overnight) at 37° C., 5% CO2. Meso Scale Discovery (MSD) plates were used for the detection of sAPPβ release. MSD sAPPβ plates were blocked in 1% BSA in Tris wash buffer (40 μL/well) for 1 h on shake at r.t. and washed 1 time in Tris wash buffer (40 μL/well). 20 μL of medium was transferred to the pre-blocked and washed MSD sAPPβ microplates, and the cell plates were further used in an ATP assay to measure cytotoxicity. The MSD plates were incubated with shaking at r.t. for 2 h and the media discarded. 10 μL detection antibody was added (1 nM) per well followed by incubation with shaking at r.t. for 2 h and then discarded. 40 μL Read Buffer was added per well and the plates were read in a SECTOR Imager.

For `CO[C@H]1CC[C@]2(CC1)Cc1ccc(-c3cncc(Cl)c3)cc1C21N=C(C)C(N)=N1` (some centres not stated) [US10231967, Example 119], it took 570 pM to reach half-maximal inhibition (IC50).

Take `CO[C@H]1CC[C@]2(CC1)Cc1ccc(-c3cc(Cl)cc(C#N)c3)cc1C21N=C(C)C(N)=N1` (some centres not stated) [US10231967, Example 125]: half-maximal inhibition (IC50) required 260 pM.
